What was measured:
[1] = tested on: PC12 cells; assay: MTT assay, cytotoxicity of Aβ; assay type: cell-based; design: dose or concentration left out as unconfirmed; conditions: Aβ1-42 incubated with VEGF165 or GST-HBD at 37° C. for 24 hours; PC12 cells 24 hours
Experimental: In order to such affection, this example investigated the cytotoxicity of Aβ acting on the activity of reduction of PC12 cells, and the affection of VEGF thereon, to determine the viability of the cells using the conventional method of MTT [3-(4,5-dimethylthiazol-2-yl)-2,5-diphenyl-tetrazolium bromide] assay (Shearman et al., J Neurochem 65:218-227 (1995)). […] The mixture was added to PC12 cells (2×10^4, cells/well, kindly provided by Dr. Pann-Ghill Suh), and then left for reaction at 37° C. for 24 hours. Then, 1/10 volume of 5 mg/ml MTT solution was added to the resulted mixture, and reacted for 2 hours. The obtained cells were lysed by 25% dimethylformamide/10% SDS. Thereafter, the absorbance of the lysate was measured at 570 nm, and then, compared with that of control of non-treated PC12 cells, to determine the reduction of MTT, and thereby determining the viability of the cells.

[2] = tested on: PC12 cells; assay: Ethidium fluorescence assay, cytotoxicity of Aβ; assay type: cell-based; conditions: 5 μM Aβ1-42 incubated with VEGF or GST-HBD at 37° C. for 24 hours; PC12 cells 24 hours
Experimental: The inhibitory activity of VEGF to the cytotoxicity of Aβ was investigated by the conventional method of ethidium fluorescence assay (Qiu WQ et al., J Biol Chem 273:32730-32738 (1998)). VEGF or GST-HBD, each having various concentrations as shown in FIGS. 10A and 10B, and 5 μM Aβ1-42 were mixed and incubated at 37° C. for 24 hours. The mixture was added to PC12 cells (2×10^4, cells/well, kindly provided by Dr. Pann-Ghill Suh), and then left for reaction at 37° C. for 24 hours. Then, equal volume of 4 μM ethidium homodimer-1 was added to the resulted mixture, and reacted for 30 minutes. Thereafter, the fluorescence of the mixture was measured at Ex=530 nm and Em=645 nm, and then, compared with that of control of non-treated PC12 cells, to determine the cytotoxicity of Aβ.

VEGF
inhibition of the cytotoxicity of Aβ (MTT reduction) [1]: concentration-dependent ability to recover the activity of reduction of MTT
inhibition of the cytotoxicity of Aβ (ethidium homodimer-1 fluorescence) [2]: inhibit the cytotoxicity of Aβ depending on the concentration

Source: US7795213B2, “Methods of contacting β amyloid protein with VEGF” (POSCO, priority 2002, dated 2010)
